AlphaSeq binding of Ab-14 heavy chain variants to a spike HR2 peptide

Data: MIT Lincoln Laboratory AlphaSeq set, Engelhart et al. 2022, doi:10.1038/s41597-022-01779-4, as distributed in FLAb.

The target is the same throughout: PDVDLGDISGINAS, from the HR2 region of SARS-CoV-2 spike.

Parent: Ab-14, a human scFv built as VH, the linker GGGGSGGGGSGGGGS, VL. Only the CDRs of the heavy chain vary.
VH: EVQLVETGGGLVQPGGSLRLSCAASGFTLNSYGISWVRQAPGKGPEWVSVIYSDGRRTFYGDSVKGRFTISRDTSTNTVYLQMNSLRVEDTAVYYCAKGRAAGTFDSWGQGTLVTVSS
VL: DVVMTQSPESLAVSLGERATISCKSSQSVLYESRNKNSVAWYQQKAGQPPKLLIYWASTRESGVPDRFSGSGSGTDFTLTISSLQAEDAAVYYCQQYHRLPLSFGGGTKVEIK

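The library (AAYL49) carries one to three amino acid substitutions per variant, with no insertions or deletions. In AlphaSeq, yeast of one mating type display the scFv and yeast of the other type display the target. After mating in shaken culture at 30 °C for 16 h, diploids were selected and their barcode pairs sequenced. Each replicate has its own calibration line, from reference interactions of the BCL2 family. Each pool was mated in three replicate cultures.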

The parent's heavy chain CDRs are GFTLNSYGIS, VIYSDGRRTFYGDSVK, GRAAGTFDS; each variant's own CDRs replace them letter for letter.
Scale: log10 of Kd in nM, estimated from mating counts; low values are strong binders.
Replicates are averaged; those with no signal do not enter the mean.
"nd" means that the variant was in the library but no mating with the target was seen in that replicate; the authors take this as a sign of poor binding, and no number exists.
Empty control strains, which show no peptide, gave a signal in 15% of pairings with library AAYL49; the median was 4.06 and 95% of these signals were weaker than 2.83. No background was subtracted. For each scFv, signals with the empty controls are counted beside the result, with their mean in brackets.

{"CDR-H1": "GTTLNSYGIV", "CDR-H2": "VIYSDGRRTFYGDSVK", "CDR-H3": "GRAAGTFDM", "log10 Kd, replicates": "nd nd nd", "mean, log10 nM": "nd", "signal with controls": "2 of 9 (3.81)"}
{"CDR-H1": "GFTLNSAGIS", "CDR-H2": "VIYSDGRRPFYGDSVK", "CDR-H3": "GRAAGTKDS", "log10 Kd, replicates": "nd nd 4.44", "mean, log10 nM": "4.44", "signal with controls": "1 of 9 (3.70)"}
{"CDR-H1": "GFTLNCYGIS", "CDR-H2": "VIRSDGRRTFYGDSVK", "CDR-H3": "GRADGTFDS", "log10 Kd, replicates": "nd nd 5.99", "mean, log10 nM": "5.99", "signal with controls": "1 of 9 (3.38)"}
{"CDR-H1": "GFTLNSYGIS", "CDR-H2": "VIYSDVRRTFYGDSVK", "CDR-H3": "SRAAGPFDS", "log10 Kd, replicates": "nd 3.54 4.64", "mean, log10 nM": "4.09", "signal with controls": "4 of 9 (4.09)"}
{"CDR-H1": "GFTLNSHGIS", "CDR-H2": "VIYSWGRRTFYGDSWK", "CDR-H3": "GRAAGTFDS", "log10 Kd, replicates": "nd 4.41 nd", "mean, log10 nM": "4.41", "signal with controls": "2 of 9 (3.67)"}
{"CDR-H1": "GFTLNSYGIS", "CDR-H2": "VIYSIMRRTFYGDSVK", "CDR-H3": "GSAAGTFDS", "log10 Kd, replicates": "nd nd 5.33", "mean, log10 nM": "5.33", "signal with controls": "1 of 9 (5.21)"}
{"CDR-H1": "GFTLNSYGIS", "CDR-H2": "VIYSNGRRTFYGDAVK", "CDR-H3": "GRAAGCFDS", "log10 Kd, replicates": "nd nd nd", "mean, log10 nM": "nd", "signal with controls": "0 of 9"}
{"CDR-H1": "GFTLNSYGIS", "CDR-H2": "VIYSYQRRTFYGDSVQ", "CDR-H3": "GRAAGTFDS", "log10 Kd, replicates": "nd nd 5.35", "mean, log10 nM": "5.35", "signal with controls": "1 of 9 (3.98)"}
{"CDR-H1": "GTTLNSYGIS", "CDR-H2": "VIYSDGRRTFYADSVK", "CDR-H3": "GRAATTFDS", "log10 Kd, replicates": "nd nd nd", "mean, log10 nM": "nd", "signal with controls": "1 of 9 (3.63)"}
{"CDR-H1": "GFTLNSYNIS", "CDR-H2": "VIYSDGRRTFYGDSQK", "CDR-H3": "GPAAGTFDS", "log10 Kd, replicates": "nd nd nd", "mean, log10 nM": "nd", "signal with controls": "1 of 9 (2.79)"}
{"CDR-H1": "GFAHNSYGIS", "CDR-H2": "VIYSDGRRTFYGDSVK", "CDR-H3": "GRAAGTFDS", "log10 Kd, replicates": "3.38 nd 5.55", "mean, log10 nM": "4.46", "signal with controls": "0 of 9"}
{"CDR-H1": "GFTLNSYGIS", "CDR-H2": "VIASDGRTTFYGDSVK", "CDR-H3": "GRAAGTFES", "log10 Kd, replicates": "nd nd nd", "mean, log10 nM": "nd", "signal with controls": "0 of 9"}
{"CDR-H1": "GFTLNSYWIS", "CDR-H2": "VIYSDGQRTFYGDSFK", "CDR-H3": "GRAAGTFDS", "log10 Kd, replicates": "nd 3.27 3.85", "mean, log10 nM": "3.56", "signal with controls": "1 of 9 (3.22)"}
{"CDR-H1": "GFTLNSYGIS", "CDR-H2": "VIYSDGRQTLYGDSVK", "CDR-H3": "GRAAGTFPS", "log10 Kd, replicates": "nd nd nd", "mean, log10 nM": "nd", "signal with controls": "4 of 9 (4.02)"}
{"CDR-H1": "GFTLNSYGIS", "CDR-H2": "VWYSDGRRTFYNYSVK", "CDR-H3": "GRAAGTFDS", "log10 Kd, replicates": "nd nd nd", "mean, log10 nM": "nd", "signal with controls": "1 of 9 (3.26)"}
{"CDR-H1": "GWTLSSYGIS", "CDR-H2": "VIYIDGRRTFYGDSVK", "CDR-H3": "GRAAGTFDS", "log10 Kd, replicates": "nd nd nd", "mean, log10 nM": "nd", "signal with controls": "0 of 9"}
{"CDR-H1": "GFTLNSYGIS", "CDR-H2": "VIYSDGRRTFYGDSVK", "CDR-H3": "GRNAWTMDS", "log10 Kd, replicates": "nd nd nd", "mean, log10 nM": "nd", "signal with controls": "0 of 9"}
{"CDR-H1": "GFTLNSYGIS", "CDR-H2": "VSYSDGRRTFYGDSPT", "CDR-H3": "GRAAGTFDS", "log10 Kd, replicates": "nd nd nd", "mean, log10 nM": "nd", "signal with controls": "0 of 9"}
{"CDR-H1": "GFTLGSYYIS", "CDR-H2": "VIYSDGRRTFYGDSVH", "CDR-H3": "GRAAGTFDS", "log10 Kd, replicates": "nd nd nd", "mean, log10 nM": "nd", "signal with controls": "1 of 9 (2.72)"}
{"CDR-H1": "GFTLNSYGIS", "CDR-H2": "VIYSDGRRTFYGQQVK", "CDR-H3": "GRAAGTFDS", "log10 Kd, replicates": "2.20 1.28 1.75", "mean, log10 nM": "1.74", "signal with controls": "0 of 9"}
{"CDR-H1": "GFTLNSYGIS", "CDR-H2": "VIYSDGRRTFYGDSVK", "CDR-H3": "GDAAYTFQS", "log10 Kd, replicates": "1.07 1.31 1.58", "mean, log10 nM": "1.32", "signal with controls": "0 of 9"}
{"CDR-H1": "KFTLNSYGIS", "CDR-H2": "VIYSDGRRTFYGDSVT", "CDR-H3": "GRATGTFDS", "log10 Kd, replicates": "nd nd nd", "mean, log10 nM": "nd", "signal with controls": "0 of 9"}
{"CDR-H1": "GFTLNSAGIL", "CDR-H2": "VIYSDARRTFYGDSVK", "CDR-H3": "GRAAGTFDS", "log10 Kd, replicates": "nd nd nd", "mean, log10 nM": "nd", "signal with controls": "0 of 9"}
{"CDR-H1": "GFTLNSYGIS", "CDR-H2": "VIYSDGRRTFYGNSVK", "CDR-H3": "GRAAGTFDC", "log10 Kd, replicates": "nd nd 5.33", "mean, log10 nM": "5.33", "signal with controls": "1 of 9 (4.10)"}
{"CDR-H1": "GFDLNSYGIS", "CDR-H2": "VIYSDGRSTFYGDSVK", "CDR-H3": "GRAAGEFDS", "log10 Kd, replicates": "nd nd nd", "mean, log10 nM": "nd", "signal with controls": "0 of 9"}
{"CDR-H1": "GFTLNSYGIS", "CDR-H2": "VIYSDGRNTFYCDSVK", "CDR-H3": "GRAAGTFMS", "log10 Kd, replicates": "nd 3.09 nd", "mean, log10 nM": "3.09", "signal with controls": "3 of 9 (3.85)"}
{"CDR-H1": "GFTLHSYGIS", "CDR-H2": "VIYSDGRRTFYGDSVE", "CDR-H3": "GRAAGKFDS", "log10 Kd, replicates": "nd nd nd", "mean, log10 nM": "nd", "signal with controls": "1 of 9 (4.03)"}

2 of these entries, quoted again:

CDR-H1	CDR-H2	CDR-H3	log10 Kd, replicates	mean, log10 nM	signal with controls
GFTLNSYGIS	VWYSDGRRTFYNYSVK	GRAAGTFDS	nd nd nd	nd	1 of 9 (3.26)
GFTLNSYNIS	VIYSDGRRTFYGDSQK	GPAAGTFDS	nd nd nd	nd	1 of 9 (2.79)